Consider 19 molecules from US11020397B2, “Compounds and their use for reducing uric acid levels” (Acquist LLC, priority 2016, dated 2021).

Chains of the proteins cited; added tags and fusions are not shown. Lines headed by an entry give the natural chain unless they say otherwise; changes in a name come on top.
UniProt Q96S37: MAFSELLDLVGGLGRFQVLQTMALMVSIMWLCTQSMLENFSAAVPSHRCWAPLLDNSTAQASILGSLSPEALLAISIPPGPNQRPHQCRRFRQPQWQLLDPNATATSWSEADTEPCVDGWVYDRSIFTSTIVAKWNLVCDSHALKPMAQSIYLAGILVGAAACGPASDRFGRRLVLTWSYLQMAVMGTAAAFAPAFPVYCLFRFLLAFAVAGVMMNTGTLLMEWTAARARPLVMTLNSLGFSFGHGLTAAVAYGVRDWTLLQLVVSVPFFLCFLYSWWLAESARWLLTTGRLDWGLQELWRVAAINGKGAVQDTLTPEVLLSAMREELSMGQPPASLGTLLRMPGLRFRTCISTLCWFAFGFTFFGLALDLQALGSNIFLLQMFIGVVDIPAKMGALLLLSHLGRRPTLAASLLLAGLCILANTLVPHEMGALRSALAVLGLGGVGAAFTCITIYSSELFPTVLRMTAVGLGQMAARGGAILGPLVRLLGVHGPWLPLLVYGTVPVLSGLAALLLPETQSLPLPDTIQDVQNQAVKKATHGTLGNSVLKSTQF

The target in this experiment is URAT1 (SLC22A12) (Homo sapiens (Human), UniProt Q96S37). As to conditions: for IC50: read-out: URAT1 IC50, URAT1 assay as described herein, URAT-1/CHO cells, 3H-orotate transport.

Like-named read-outs stand apart in the source and are kept apart here.

For the molecule `CSc1nc(O)c(C(=O)Nc2ccc(-c3c[nH]nn3)cc2OC(F)(F)F)c(=O)[nH]1` [Formula (II3), N-(4-(1H-1,2,3-triazol-4-yl)-2-(trifluoromethoxy)phenyl)-4-hydroxy-2-(methylthio)-6-oxo-1,6-dihydropyrimidine-5-carboxamide], the IC50 (as a rule, the midpoint of a concentration-inhibition curve) is 4.9 µM. Further, the “URAT1 inhibition, verbal rating” value (compared to lesinurad) was “particularly potent inhibitors of URAT1 compared to lesinurad”.

In the case of `CSc1nc(O)c(C(=O)Nc2ccc(-c3c[nH]nn3)cc2OC(F)F)c(=O)[nH]1` [Formula (II4), N-(2-(difluoromethoxy)-4-(1H-1,2,3-triazol-4-yl)phenyl)-4-hydroxy-2-(methylthio)-6-oxo-1,6-dihydropyrimidine-5-carboxamide], the IC50 amounted to 2.3 µM. For the same molecule, the “URAT1 inhibition, verbal rating” value (compared to lesinurad) is “particularly potent inhibitors of URAT1 compared to lesinurad”.

In the case of `CSc1nc(O)c(C(=O)Nc2ccc(-c3c[nH]nn3)cc2C#N)c(=O)[nH]1` [Formula (II5), N-(2-cyano-4-(1H-1,2,3-triazol-4-yl)phenyl)-4-hydroxy-2-(methylthio)-6-oxo-1,6-dihydropyrimidine-5-carboxamide], the half-maximal inhibitory concentration (IC50) was 7.5 µM. For the same molecule, the “URAT1 inhibition, verbal rating” value (compared to lesinurad) is reported as “particularly potent inhibitors of URAT1 compared to lesinurad”.

As to `CC(C)Sc1nc(O)c(C(=O)Nc2ccc(-c3c[nH]nn3)cc2C(F)(F)F)c(=O)[nH]1` [Formula (II7), N-(4-(1H-1,2,3-Triazol-5-yl)-2-(trifluoromethyl)phenyl)-4-hydroxy-2-(isopropyl-thio)-6-oxo-1,6-dihydropyrimidine-5-carboxamide], the IC50 was more than 100 µM.

For the molecule `CSc1nc(O)c(C(=O)Nc2ncc(-c3c[nH]nn3)cc2C(F)(F)F)c(=O)[nH]1` [Formula (II8), N-(5-(1H-1,2,3-triazol-4-yl)-3-(trifluoromethyl)pyridin-2-yl)-4-hydroxy-2-(methylthio)-6-oxo-1,6-dihydropyrimidine-5-carboxamide], the IC50 came out at 19.9 µM.

Regarding `CSc1nc(O)c(C(=O)Nc2ccc3nc(-c4c[nH]nn4)ccc3c2)c(=O)[nH]1` [Formula (II10), N-(2-(1H-1,2,3-triazol-4-yl)quinolin-6-yl)-4-hydroxy-2-(methylthio)-6-oxo-1,6-dihydropyrimidine-5-carboxamide], the IC50 is more than 100 µM.

Regarding `CSc1nc(O)c(C(=O)Nc2ccc(-c3c[nH]nn3)c(F)c2F)c(=O)[nH]1` [Formula (IIaa), N-(2,3-difluoro-4-(1H-1,2,3-triazol-4-yl)phenyl)-4,6-dihydroxy-2-(methylthio) pyrimidine-5-carboxamide], the IC50 is more than 90 µM.

Consider `CN(C)CCSc1nc(O)c(C(=O)Nc2ccc(-c3c[nH]nn3)cc2F)c(=O)[nH]1` [Formula (IIbb), 2-((2-(dimethylamino)ethyl)thio)-N-(2-fluoro-4-(1H-1,2,3-triazol-4-yl)phenyl)-4-hydroxy-6-oxo-1,6-dihydropyrimidine-5-carboxamide], for which the IC50 is more than 90 µM.

As for `CC(C)Sc1nc(O)c(C(=O)Nc2ccc(-c3c[nH]nn3)cc2)c(=O)[nH]1` [Formula (IIi), N-(4-(1H-1,2,3-triazol-5-yl)phenyl)-4-hydroxy-2-(isopropylthio)-6-oxo-1,6-dihydropyrimidine-5-carboxamide], the “URAT1 inhibition, verbal rating” value is “effectively inhibit URAT1” and the half-maximal inhibitory concentration (IC50) was determined as 1.08 µM.

In the case of `CSc1nc(O)c(C(=O)Nc2ccc(-c3c[nH]nn3)nc2)c(=O)[nH]1` [Formula (IIii), N-(6-(1H-1,2,3-triazol-4-yl)pyridin-3-yl)-4-hydroxy-2-(methylthio)-6-oxo-1,6-dihydropyrimidine-5-carboxamide], the IC50 was more than 40 µM.

In the case of `CCSc1nc(O)c(C(=O)Nc2ccc(-c3c[nH]nn3)cc2)c(=O)[nH]1` [Formula (IIl), N-(4-(1H-1,2,3-triazol-4-yl)phenyl)-2-(ethylthio)-4-hydroxy-6-oxo-1,6-dihydropyrimidine-5-carboxamide], the “URAT1 inhibition, verbal rating” value is listed as “effectively inhibit URAT1” and the IC50 was determined as 2.43 µM.

For the molecule `CCSc1nc(O)c(C(=O)Nc2ccc(-c3nn[nH]n3)cc2)c(=O)[nH]1` [Formula (IIp), N-(4-(1H-tetrazol-5-yl)phenyl)-2-(ethylthio)-4-hydroxy-6-oxo-1,6-dihydropyrimidine-5-carboxamide], the IC50 is more than 50 µM.

Turning to `CC(C)CSc1nc(O)c(C(=O)Nc2ccc(-c3c[nH]nn3)cc2)c(=O)[nH]1` [Formula (IIq), N-(4-(1H-1,2,3-triazol-4-yl)phenyl)-4-hydroxy-2-(isobutylthio)-6-oxo-1,6-dihydropyrimidine-5-carboxamide], the “URAT1 inhibition, verbal rating” value was “effectively inhibit URAT1” and the IC50 was 14.2 µM.

As for `CSc1nc(O)c(C(=O)Nc2ccc(-c3c[nH]nn3)c(F)c2)c(=O)[nH]1` [Formula (IIr), N-(3-Fluoro-4-(1H-1,2,3-triazol-4-yl)phenyl)-4-hydroxy-2-(methylthio)-6-oxo-1,6-dihydropyrimidine-5-carboxamide], the “URAT1 inhibition, verbal rating” value is “effectively inhibit URAT1” and the IC50 came out at 1.85 µM.

As to `CSc1nc(O)c(C(=O)Nc2ccc(-c3c[nH]nn3)cc2F)c(=O)[nH]1` [Formula (IIs), N-(2-Fluoro-4-(1H-1,2,3-triazol-4-yl)phenyl)-4-hydroxy-2-(methylthio)-6-oxo-1,6-dihydropyrimidine-5-carboxamide], the “URAT1 inhibition, verbal rating” value is recorded as “effectively inhibit URAT1” and the IC50 was more than 3.5 µM.

As to `CSc1nc(O)c(C(=O)Nc2c(F)cc(-c3c[nH]nn3)cc2F)c(=O)[nH]1` [Formula (IIt), N-(2,6-Difluoro-4-(1H-1,2,3-triazol-4-yl)phenyl)-4-hydroxy-2-(methylthio)-6-oxo-1,6-dihydropyrimidine-5-carboxamide], the IC50 was determined as 19.9 µM.

`CC(C)Sc1nc(O)c(C(=O)Nc2ccc(-c3c[nH]nn3)cc2F)c(=O)[nH]1` [Formula (IIv), N-(2-Fluoro-4-(1H-1,2,3-triazol-4-yl)phenyl)-4-hydroxy-2-(isopropylthio)-6-oxo-1,6-dihydropyrimidine-5-carboxamide]: the IC50 amounted to 18.5 µM.

In the case of `CC(C)Sc1nc(O)c(C(=O)Nc2ccc(-c3c[nH]nn3)c(F)c2)c(=O)[nH]1` [Formula (IIw), N-(3-Fluoro-4-(1H-1,2,3-triazol-4-yl)phenyl)-4-hydroxy-2-(isopropylthio)-6-oxo-1,6-dihydropyrimidine-5-carboxamide], the IC50 was more than 30 µM.

As for `CC(C)Sc1nc(O)c(C(=O)Nc2c(F)cc(-c3c[nH]nn3)cc2F)c(=O)[nH]1` [Formula (IIx), N-(2,6-Difluoro-4-(1H-1,2,3-triazol-4-yl)phenyl)-4-hydroxy-2-(isopropylthio)-6-oxo-1,6-dihydropyrimidine-5-carboxamide], the half-maximal inhibitory concentration (IC50) is not below 30 µM.
